Reference: publication PMC8998617
pKd: −log10 of the molar value. Where two headings read alike, the source gives them in different places.

Chains of the proteins cited; added tags and fusions are not shown. Residues count along the entry.
UniProt P52948, 1-498: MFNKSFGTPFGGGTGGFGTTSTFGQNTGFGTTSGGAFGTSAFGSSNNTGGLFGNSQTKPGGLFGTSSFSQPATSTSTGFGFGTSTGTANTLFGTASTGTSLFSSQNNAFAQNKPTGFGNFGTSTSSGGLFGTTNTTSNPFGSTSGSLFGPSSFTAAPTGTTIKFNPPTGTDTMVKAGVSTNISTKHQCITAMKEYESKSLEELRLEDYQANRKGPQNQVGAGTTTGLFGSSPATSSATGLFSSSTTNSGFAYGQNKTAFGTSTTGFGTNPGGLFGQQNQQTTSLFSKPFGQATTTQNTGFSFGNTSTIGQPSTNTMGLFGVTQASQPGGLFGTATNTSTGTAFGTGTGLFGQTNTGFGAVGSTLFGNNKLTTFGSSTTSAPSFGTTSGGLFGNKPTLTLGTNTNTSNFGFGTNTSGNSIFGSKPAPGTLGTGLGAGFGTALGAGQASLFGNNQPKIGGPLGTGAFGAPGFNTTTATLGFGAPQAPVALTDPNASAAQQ

Columns and labels:
[1] = biological target: Nup98-FG (N-terminal FG-domain of Nup98, aa 1-498) with one additional N-terminal cysteine, tethered to the SPR gold chip (UniProt P52948); assay: SPR; Biacore T200; Nup98-FG or Nup98-FG/FS tethered by its N-terminal cysteine to the gold sensor chip; Tau proteins injected at increasing concentrations in PBS; BSA injected after each Tau injection; equilibrium constants from one- or two-component Langmuir fits
[2] = biological target: His-tagged Nup98-FG (aa 1-498), immobilised on BLI biosensors (UniProt P52948); assay: BLI; BLItz instrument; His-tagged Nup98-FG immobilised on Ni-NTA or HIS biosensors; Tau variants (fresh, monomeric; 1, 2 and 4 µM) in PBS
[3] = biological target: Nup98-FG (N-terminal FG-domain of Nup98, aa 1-498) with one additional N-terminal cysteine, tethered to the SPR gold chip (UniProt P52948); assay: SPR; Biacore T200; Nup98-FG or Nup98-FG/FS tethered by its N-terminal cysteine to the gold sensor chip; Tau proteins injected at increasing concentrations in PBS; BSA injected after each Tau injection; equilibrium constants from one- or two-component Langmuir fits; remark: listed apart in the source

For “phosphorylated Tau (P-Tau), human full-length Tau 2N4R purified from insect cells (from UniProt P10636-8 1-441) (natural protein)”, the pKd [1] was 4.91.
“recombinant human full-length Tau (2N4R, 441 aa), non-phosphorylated (from UniProt P10636-8 1-441) (natural protein)” was tested, and the pKd [2] was 6.07, the pKd [1] was 5.95 and the pKd [3] was 6.40.
